Biological target: nLuc-PTHR1 (human parathyroid hormone receptor-1 with NanoLuc luciferase fused to the N-terminus) (human) (UniProt Q03431)
Experiment: FRET or BRET

Chains of the proteins cited; added tags and fusions are not shown. Residues count along the entry.
UniProt Q03431, 27-593: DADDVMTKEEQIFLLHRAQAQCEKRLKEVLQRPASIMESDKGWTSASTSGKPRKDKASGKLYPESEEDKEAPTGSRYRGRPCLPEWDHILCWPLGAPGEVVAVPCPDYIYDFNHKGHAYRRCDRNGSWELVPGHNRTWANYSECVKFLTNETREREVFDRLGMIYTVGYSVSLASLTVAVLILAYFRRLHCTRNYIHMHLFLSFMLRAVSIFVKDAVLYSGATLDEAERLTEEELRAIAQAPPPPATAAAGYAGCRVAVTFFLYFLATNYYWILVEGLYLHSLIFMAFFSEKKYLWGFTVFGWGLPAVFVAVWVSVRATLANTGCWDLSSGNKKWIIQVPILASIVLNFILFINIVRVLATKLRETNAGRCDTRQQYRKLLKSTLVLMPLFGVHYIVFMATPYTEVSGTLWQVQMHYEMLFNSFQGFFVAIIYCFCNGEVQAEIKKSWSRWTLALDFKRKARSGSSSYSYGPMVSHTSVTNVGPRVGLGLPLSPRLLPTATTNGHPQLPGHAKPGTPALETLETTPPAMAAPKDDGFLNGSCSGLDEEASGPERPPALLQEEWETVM

Kd: 73 nM | koff: 0.024 s⁻¹ | kon: 240000 M⁻¹ s⁻¹
Substance: PTHrP(1-34) (peptide)
